This data set has as its system relapsed or refractory mantle cell lymphoma (MCL). The following applies: first cycle.

Consider `Nc1cccc2c1CN(C1CCC(=O)NC1=O)C2=O` (centres unmarked) [Revlimid®, 3-(4-amino-1-oxo-1,3-dihydro-isoindol-2-yl)-piperidine-2,6-dione], for which the “grade 3 or 4 toxicities during the cycle” value (+ rituximab) is given as “no grade 3 or 4 toxicities”. Besides, the “Dose-limiting toxicity (DLT): grade 3 or 4 non-hematologic or grade 4 hematologic toxicity” value (Revlimid up to 20 mg orally daily for 21 of 28 days + rituximab 375 mg/m^2 iv weekly, seven evaluable patients) is “No DLT was encountered”.
